# Patent publication US11421204B2, “Method of removing pluripotent cells from culture” (REPROCELL INCORPORATED, priority 2015, dated 2022)
# Legend:
# [1] = test system: neuron performed differentiation induction from the human iPS cell (ReproNeuro); assay: Evaluation of effects of ALA-PDT for neuron originated from iPS cell; assay type: cell-based; conditions: ALA 250, 500 micro-M for 4 hours, red LED (635 nm) 10 minutes; shortly after (not shown)
# Description: Then, the effects by ALA-PDT for the neuron performed differentiation induction from the human iPS cell (neuron originated from iPS cell) were evaluated. The used neuron was ReproNeuro. […] After that, the cell form was observed. Then, the cultured neuron was irradiated with red LED (wavelength of 635 nm) for 10 minutes, and the cell form was observed after 12-hour progresses (overnight). Then, it was exchanged the culture medium, which ALA was not included, and the cell form was observed after cultivating with exchanging the culture media for seven days.
# [2] = test system: iPS cell (cell line 201B7); assay: Comparison of effects by wavelength of photoirradiation of ALA-PDT for iPS cell; assay type: cell-based, human; conditions: ALA 100 or 1000 micro-M for 4 hours, red LED (635 nm) or blue LED (405 nm) 10 minutes, observed 24 hours afterward
# Description: Then, the effect by the difference of the wavelength in the photoirradiation of ALA-PDT for a human iPS cell was compared.
# Then, the cultured iPS cell was irradiated with red LED (wavelength of 635 nm) or blue LED (wavelength of 405 nm) for 10 minutes, and the cell form was observed 24 hours afterward.
# Culture conditions were: used cell line: 201B7 and used culture-medium: Primate ES Cell Medium.
# [3] = test system: iPS cell (cell line 201B7); assay: Evaluation of effects of ALA-PDT for iPS cell (cell form, ALP expression); assay type: cell-based, human; conditions: ALA 1000 micro-M and/or SFC 500 micro-M for 48 hours, blue LED (405 nm) 10 minutes, observed 24 hours afterward
# [4] = test system: cardiac muscle cell performed differentiation induction from the human iPS cell; assay: Evaluation of effect of ALA-PDT for cardiac muscle cell originated from iPS cell
structure (smiles),measurement,setting,value
"NCC(=O)CCC(=O)O [ALA, delta-aminolevulinic acid]",neural spine after addition of ALA and LED irradiation,[1],"the neural spine became short, temporarily"
same,"cell form of iPS cell colony after ALA-PDT, red vs blue LED",[2],the colony collapsed
same,cell form of iPS cell colonies after ALA-PDT,[3],"the colonies of the iPS cells collapsed, and a part of them was exfoliated"
same,beating and colony shape of cardiac muscle cell after ALA-PDT,"[4]; ALA 500 micro-M for 4 hours, red LED 10 minutes, observed after 12 hours (overnight)","the naturally-beating cardiac muscle stopped, and the cardiac muscle colony also lost its shape"
same,recovery and beating of cardiac muscle cell after ALA-PDT,"[4]; about 250 micro-M ALA, several days after ALA-PDT, preliminary experiment (not shown)",recovered as like the neuron and beat
